The source of these data is patent EP4847503A1, “TETRAZOLE COMPOUND, PHARMACEUTICAL COMPOSITION THEREOF AND USE THEREOF” (dated 2026).

Amino acid sequences for entries named in this document (tags omitted).
UniProt P50052, whole entry: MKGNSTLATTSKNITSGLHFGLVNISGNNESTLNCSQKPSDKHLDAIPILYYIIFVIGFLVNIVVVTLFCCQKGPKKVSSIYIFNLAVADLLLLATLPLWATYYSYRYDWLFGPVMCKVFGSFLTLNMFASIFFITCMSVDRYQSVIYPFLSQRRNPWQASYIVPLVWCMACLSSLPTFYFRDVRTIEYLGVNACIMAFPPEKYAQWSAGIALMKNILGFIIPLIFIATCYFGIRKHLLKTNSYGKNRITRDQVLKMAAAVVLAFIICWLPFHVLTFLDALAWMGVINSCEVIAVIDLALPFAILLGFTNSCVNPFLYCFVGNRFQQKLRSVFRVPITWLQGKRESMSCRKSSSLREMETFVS

Bounds are passed on as bounds.

Data set [1] can be described thus: Pharmacokinetic behavior in mice. The settings on record: ICR mice. The procedure:
Test Example 3 Study on the pharmacokinetic behavior of the compounds of the present invention in mice
Healthy ICR mice (SPF grade, source: Beijing Vital River Laboratory Animal Technology Co., Ltd.), 3 animals, male, weighing 18-25 g, were intravenously injected with 1 mg/kg of the compound at a dosing volume of 5 mL/kg, formulated with 5% DMSO + 10% Solutol + 85% Saline (w/v). Animals were fasted prior to the test.
Healthy ICR mice (SPF grade, source: Beijing Vital River Laboratory Animal Technology Co., Ltd.), 3 animals, male, weighing 18-25 g, were intragastrically administered with 5 mg/kg of the compound at a dosing volume of 10 mL/kg, formulated with 5% DMSO + 10% Solutol + 85% Saline (w/v). Animals were fasted prior to the test.
(§1) Blood samples (approx. 0.05 mL each) were collected via the cheek at 5 min, 15 min, 30 min, 1 h, 2 h, 4 h, 6 h, 8 h, and 24 h after intravenous administration, and at 5 min, 15 min, 30 min, 1 h, 2 h, 4 h, 6 h, 8 h, and 24 h after intragastric administration, respectively, using sodium heparin as an anticoagulant. After collection, the blood samples were placed on ice, and the plasma was separated by centrifugation within 1 hour (centrifugation conditions: 6000 g, 3 minutes, 2-8 °C). The concentration of the compound in plasma was determined by liquid chromatography-tandem mass spectrometry. Plasma samples were stored in a -80 °C freezer before analysis. Pharmacokinetic parameters were calculated using Phoenix WinNonlin 8.2.0 based on plasma concentration data at different time points.

Data set [2] addresses AT2 receptor (Homo sapiens, UniProt P50052). Nature of the data set: AT2R Binding assay (Tag-lite HTRF, affinity for AT2 receptor). The settings on record: read-out: AT2R IC50; Tag-lite Angiotensin AT2 labeled Cells, 25 °C, 1 hour. The method, then:
Test Example 1 Determination of the affinity of the test compounds for AT2 receptor by AT2R Binding assay
1. Reagent preparation • 1.1 Cell line: Tag-lite Angiotensin AT2 labeled Cells; • 1.2 Assay buffer: 1X TLB (5 mL 5X TLB + 20 mL H2O); 2. Activity assay of the test compounds • 2.1 1X TLB assay buffer, 4X working solutions of the test compounds, and 4X Tag-lite angiotensin receptor red agonist (Cisbio, L0007RED) were prepared; • 2.2 One vial of labeled-AT2R cells was thawed in a water bath at 37 °C until the ice completely melted (1-2 min). The thawed cells were quickly transferred to 5 mL of 1X TLB, mixed gently, and centrifuged at 200 g for 5 min; • 2.3 The supernatant was discarded, and the cells were resuspended and mixed with 1 mL of 1X TLB. Then, 1.7 mL of 1X TLB was added and mixed, and the mixture was kept at room temperature for later use; • 2.4 10 µL of cells were added to a 384-well plate (Greiner, 784075) and centrifuged at 200 g at RT for 3 s; 5 µL of the 4X compound was added to the 384-well plate; 5 µL of the 4X Tag-lite angiotensin receptor red agonist was added to all test wells; • 2.5 The reaction plate was left to stand at room temperature of 25 °C for 1 hour, and then centrifuged at 200 g, RT for 60 s. Data was collected using an Envision HTRF detector. 3. Data analysis • 3.1 Calculation of % inhibition: [formula] • 3.2 Calculation of compound IC50 using GraphPad non-linear fitting formula: Y = Bottom + (Top-Bottom)/(1+10^(∧)((LogIC50-X)*HillSlope)) [formula] • X: log value of compound concentration; Y: % inhibition 4. Experimental results

Data set [3] can be described thus: Pharmacokinetic behavior in rats. The settings on record: SD rats. The method, then: Test Example 4 Study on the pharmacokinetic behavior of the compounds of the present invention in rats
Healthy SD rats (SPF grade, source: Beijing Vital River Laboratory Animal Technology Co., Ltd.), 3 animals, male, weighing 180-250 g, were intravenously injected with 1 mg/kg of the compound at a dosing volume of 2 mL/kg. The compound was formulated with 5% DMSO + 10% Solutol + 85% Saline (w/v), and the animals were not fasted prior to the test.
Healthy SD rats (SPF grade, source: Beijing Vital River Laboratory Animal Technology Co., Ltd.), 3 animals, male, weighing 180-250 g, were intragastrically administered with 5 mg/kg of the compound at a dosing volume of 10 mL/kg. The compound was formulated with 5% DMSO + 10% Solutol + 85% Saline (w/v), and the animals were not fasted prior to the test.
as §1, with “0.25” for “0.05”, “vein” for “cheek”

The target in data set [4] is AT1 receptor (Homo sapiens, UniProt P30556). Nature of the data set: AT1R Binding assay (Tag-lite HTRF, affinity for AT1 receptor). The settings on record: read-out: AT1R IC50; Tag-lite Angiotensin AT1 labeled Cells, 25 °C, 1 hour. The procedure: Test Example 2 Determination of the affinity of the test compounds for AT1 receptor by AT1R Binding assay
1 Reagent preparation • 1) Cell line: Tag-lite Angiotensin AT1 labeled Cells; • 2) Assay buffer: 1X TLB (5 mL 5X TLB + 20 mL H2O); 2 Inhibitory activity assay of the test compounds • 1) 1X TLB assay buffer, 4X working solutions of the test compounds, and 4X Tag-lite angiotensin receptor red agonist (Cisbio, L0007RED) were prepared; • 2) One vial of labeled-AT1R cells was thawed in a water bath at 37 °C until the ice completely melted (1-2 min). The thawed cells were quickly transferred to 5 mL of 1X TLB, mixed gently, and centrifuged at 200 g for 5 min; • 3) The supernatant was discarded, and the cells were resuspended and mixed with 1 mL of 1X TLB. Then, 1.7 mL of 1X TLB was added and mixed, and the mixture was kept at room temperature for later use; • 4) 10 µL of cells were added to a 384-well plate (Greiner, 784075) and centrifuged at 200 g at RT for 3 s; 5 µL of the 4X compound was added to the 384-well plate; 5 µL of the 4X Tag-lite angiotensin receptor red agonist was added to all test wells; • 5) The reaction plate was left to stand at room temperature of 25 °C for 1 hour, and then centrifuged at 200 g, RT for 60 s. Data was collected using an Envision HTRF detector. […]

Where [5] appears, read: intragastric administration 5 mg/kg.

In data set [1] (setting [5]), `CC(C)Cc1cc(Nc2cnn(C)c2)c(-c2nn[nH]n2)c(N2CCN(Cc3cccnn3)[C@@H](C)C2)c1` returned an AUClast of 6812 ng·h/mL, a Cmax of 4870 ng/mL and a T1/2 of 1.90 h. In data set [1] (intravenous injection 1 mg/kg), the AUClast was 1006 ng·h/mL, the CL worked out at 17.3 mL/min/kg, the peak concentration (Cmax) is reported as 1470 ng/mL and the Vss is given as 0.873 L/kg. Further, the IC50 in data set [2] came out at 4.3 nM. In data set [3] (setting [5]), this compound gave an AUClast of 6269 ng·h/mL, a Cmax of 1637 ng/mL and a T1/2 of 4.06 h. Also, the “F(%)” value in data set [3] (intragastric administration 5 mg/kg vs intravenous 1 mg/kg) was 49.5%. Further, in data set [3] (intravenous injection 1 mg/kg), the AUClast was 2533 ng·h/mL, the maximum concentration (Cmax) turned out to be 2074 ng/mL and the Vss is 1.01 L/kg. In addition, the IC50 in data set [4] is over 1000 nM.
